Data reported in ChEMBL document CHEMBL1155439, “Transient receptor potential ankyrin 1 (TRPA1) channel as emerging target for novel analgesics and anti-inflammatory agents” (J Med Chem, 2010).

Sequences of proteins named here, by UniProt entry; tags and fusion partners are left off.
UniProt O75762, whole entry: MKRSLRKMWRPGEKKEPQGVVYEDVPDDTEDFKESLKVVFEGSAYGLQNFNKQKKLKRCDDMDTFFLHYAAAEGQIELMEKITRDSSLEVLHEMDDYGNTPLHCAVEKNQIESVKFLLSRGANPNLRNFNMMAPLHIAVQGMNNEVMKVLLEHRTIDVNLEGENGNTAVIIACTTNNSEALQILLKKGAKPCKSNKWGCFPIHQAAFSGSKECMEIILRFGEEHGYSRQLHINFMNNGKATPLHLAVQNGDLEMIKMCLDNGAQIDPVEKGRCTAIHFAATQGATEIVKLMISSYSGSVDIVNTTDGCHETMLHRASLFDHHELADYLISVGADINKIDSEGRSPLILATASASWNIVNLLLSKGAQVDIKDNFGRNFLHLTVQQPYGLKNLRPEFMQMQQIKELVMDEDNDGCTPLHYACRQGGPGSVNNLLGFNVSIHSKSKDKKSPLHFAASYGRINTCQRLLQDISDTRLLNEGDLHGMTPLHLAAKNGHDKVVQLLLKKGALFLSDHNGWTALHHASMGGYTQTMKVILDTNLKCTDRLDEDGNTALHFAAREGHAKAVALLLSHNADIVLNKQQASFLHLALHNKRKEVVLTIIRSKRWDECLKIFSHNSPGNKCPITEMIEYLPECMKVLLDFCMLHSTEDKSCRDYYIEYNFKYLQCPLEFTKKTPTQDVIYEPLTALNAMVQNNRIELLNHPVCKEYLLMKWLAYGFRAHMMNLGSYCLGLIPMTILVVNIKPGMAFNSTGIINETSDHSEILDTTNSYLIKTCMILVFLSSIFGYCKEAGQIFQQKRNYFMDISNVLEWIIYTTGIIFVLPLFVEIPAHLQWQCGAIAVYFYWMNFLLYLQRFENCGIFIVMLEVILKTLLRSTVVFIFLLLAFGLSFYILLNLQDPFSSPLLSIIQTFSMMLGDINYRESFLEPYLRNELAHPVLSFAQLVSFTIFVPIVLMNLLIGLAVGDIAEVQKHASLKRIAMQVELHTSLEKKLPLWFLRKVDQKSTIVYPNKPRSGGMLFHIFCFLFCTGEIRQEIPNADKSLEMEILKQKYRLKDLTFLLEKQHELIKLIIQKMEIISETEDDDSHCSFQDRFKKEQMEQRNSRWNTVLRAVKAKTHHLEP

How the values were obtained:
[1] = target: T1, Transient receptor potential cation channel subfamily A member 1 (Homo sapiens, UniProt O75762); assay: Antagonist activity at human TRPA1 channel assessed as inhibition of thymol-induced response; type: functional
[2] = target: T1, Transient receptor potential cation channel subfamily A member 1; assay: Antagonist activity at TRPA1 channel assessed as inhibition of mustard oil-induced currents; type: functional

SMILES: CC12CCC(CC1=O)C2(C)C (configuration not stated) [CAMPHOR]
- IC50 [1]: 400 µM
- IC50 [2]: 660 µM
